{
  "sequences": {"note": "Chains of the proteins cited; added tags and fusions are not shown.", "UniProt P30543, whole entry": "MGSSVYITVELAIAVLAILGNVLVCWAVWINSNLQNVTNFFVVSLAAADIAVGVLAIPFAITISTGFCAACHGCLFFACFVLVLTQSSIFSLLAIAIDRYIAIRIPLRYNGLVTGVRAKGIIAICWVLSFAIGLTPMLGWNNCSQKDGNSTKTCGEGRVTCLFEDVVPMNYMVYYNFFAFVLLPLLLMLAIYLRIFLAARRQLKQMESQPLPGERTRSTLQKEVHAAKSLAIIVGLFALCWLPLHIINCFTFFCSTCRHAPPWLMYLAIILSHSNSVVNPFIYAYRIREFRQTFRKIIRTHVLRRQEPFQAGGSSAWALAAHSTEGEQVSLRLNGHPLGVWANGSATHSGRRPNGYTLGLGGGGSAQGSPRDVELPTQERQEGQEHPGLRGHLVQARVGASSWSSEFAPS"},
  "source": "patent US4593019A",
  "about": "“N^6 -tricyclic adenosines” (Warner-Lambert Company, priority 1984, dated 1986)",
  "biological_target": "T1, A2 receptor (Rattus norvegicus, UniProt P30543)",
  "T1 construct": "5 mg original tissue weight of rat weight of rat striatal membranes; tissue Pel-Freez (Rogers, Ark.); host or cells: rat striatum (membranes)",
  "experiment": "Adenosine Receptor Binding - A2 Receptor Affinity (RBA2), [3H]NECA displacement",
  "procedure": "Adenosine Receptor Binding--A2 Receptor Affinity (RBA2)\nBrains from 200-500 g mixed sex Sprague-Dawley rats were purchased from Pel-Freez (Rogers, Ark.). […] Brains were thawed and then kept on ice while the striata were dissected out. […] The suspension was centrifuged at 50,000 xg for ten minutes, the supernatant discarded, the pellet resuspended in 10 vol ice-cold Tris as above, recentrifuged, resuspended at 1 g/5 ml, and stored in plastic vials at -70° C. […] When needed, tissue was thawed at room temperature, disrupted in a Polytron, and kept on ice until used. […]\nNonspecific binding was defined as binding in the presence of 100 μM N^6 -cyclopentyladenosine, and specific binding was defined as total binding minus nonspecific binding. The IC50 was calculated by weighted nonlinear least squares curve-fitting to the mass-action equation. […]\nWeighting factors were calculated under the assumption that the standard deviation was proportional to the predicted value of Y. Nonspecific binding was treated as a very large (infinite) concentration of drug in the computer analysis.",
  "data": [
    {"smiles": "OC[C@H]1O[C@@H](n2cnc3c(NCC4c5ccccc5-c5ccccc54)ncnc32)[C@H](O)[C@@H]1O", "note": "[Example 2]", "values": [
      {"measurement": "IC50", "result": 6.9, "unit": "nM"}
    ]}
  ]
}
